Our source for the activity coefficient values is the NIST ThermoML archive (doi:10.1016/j.fluid.2018.06.013).

The series can be described thus: activity coefficient (dimensionless); of the first substance listed, at infinite dilution; xn = mol fraction of the nth substance listed. The note with it: 100 kPa, Liquid, Chromatography, x1 = 0.

SMILES strings stand for the structures. Numbers after ± are expanded uncertainties.

Take `CCCCOCCCC` [dibutyl ether] + CCCC[N+]1(C)CCCC1.N#CN=C=[N-]: the activity coefficient runs as follows: (313.15 K) 40.2 ± 4.2; (323.15 K) 38.8 ± 4.1; (343.15 K) 36.2 ± 3.8; (363.15 K) 33.9 ± 3.6; (373.15 K) 32.9 ± 3.5.
